Apparent affinities of Ab-14 variants for a coronavirus HR2 peptide

Source: Li et al. 2023 (doi:10.1038/s41467-023-39022-2), MIT Lincoln Laboratory and A-Alpha Bio; data file from the FLAb repository.

Antigen: PDVDLGDISGINAS, a 14-residue peptide of the SARS-CoV-2 spike HR2 region.

Each scFv is VH, a (GGGGS)3 linker, VL, as in the parent Ab-14, and differs from it in the CDRs of the heavy chain only.
VH: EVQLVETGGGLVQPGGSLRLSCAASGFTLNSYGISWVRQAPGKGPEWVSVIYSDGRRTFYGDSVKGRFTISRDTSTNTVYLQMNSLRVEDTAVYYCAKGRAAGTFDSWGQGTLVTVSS
VL: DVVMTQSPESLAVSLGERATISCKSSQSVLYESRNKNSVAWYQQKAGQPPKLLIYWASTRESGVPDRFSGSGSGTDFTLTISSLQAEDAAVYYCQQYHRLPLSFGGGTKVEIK

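The starting antibody came from a phage panning campaign against this peptide. Designed CDR sequences, proposed from the first random library and measured here. Several design methods are mixed in this list. The scFvs were displayed on barcoded MATa yeast, the peptide on MATalpha yeast. Pairs that bind mate more often; barcode pairs of the diploids are counted by sequencing. Read counts were normalised to the haploid input and turned into Kd by a linear fit to BCL2-family pairs of known affinity, for each replicate. Each pool was mated in six replicate cultures.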

The parent's heavy chain CDRs are GFTLNSYGIS, VIYSDGRRTFYGDSVK, GRAAGTFDS; each variant's own CDRs replace them letter for letter. This list holds designs with at most six substitutions. Kd is apparent (estimated from mating counts) and averaged on the log scale over replicates with a signal. Smaller is tighter. "nd" marks a missing value. The strain was present, yet no cells mated with the target were sequenced in any replicate, which points to weak or no binding. Nonspecific signal, from three strains lacking the peptide, appeared in 1% of pairings of all heavy chain designs, centred on 120 nM (5% of these signals below 7.0 nM); values are not corrected for it.

- GFSLNSYGIS / VIYSDGKRTFYGDSVK / GKAAGTFDS -> 5.7 nM (6 of 6 replicates)
- GFTLNSYGIS / VIYSDGRRTFYGDDVK / GRAAGAFDS -> nd (0 of 6 replicates)
- GFTLNDYGIS / VNYSDGRRTQYISSVK / GRPAGTFDS -> nd (0 of 6 replicates)
- GFTLNQYGIS / VIYSDGRRTFYSDSVK / GRSAGFFDS -> nd (0 of 6 replicates)
- GFTLNSYGIS / VIYSDGRRTHYGDSVK / GRAADTFDS -> nd (0 of 6 replicates)
- GFTLNEYGIS / VIYSDGKRTFYGDSVK / GRTAGTFDS -> 1.9 nM (6 of 6 replicates)
- GFTLNQYGIH / VIYSDGRRTFYADSVK / GRAAGTFDS -> 8.7 nM (6 of 6 replicates)
- GFTLNSYGIS / VIYSDGRRTFYSDQVK / GQTAGTFDS -> 2.4 nM (5 of 6 replicates)
- GFTLNMYGIS / VIYSDGRRTFYGDSVK / GREAGTKPS -> nd (0 of 6 replicates)
- GFTLNSYGIS / VIYSDGRRTFYIDSVK / GRYAGTFDS -> 130 nM (2 of 6 replicates)
- GFNLNSYGIS / VIYSDGRRTFYGDSVK / GHVAGTFDS -> 4.2 nM (6 of 6 replicates)
- GFELNSYGIS / VIYSDGRRTFYVDSVK / GKNAGTFDS -> 12 nM (3 of 6 replicates)
- GFSLNSYGIS / VIYSDGRRTFYGDSVK / GWAAGTFDN -> nd (0 of 6 replicates)
- GETLNSYGIS / VIYSDGLRTFYGDSVK / GAAAGTFLS -> nd (0 of 6 replicates)
- GFTLNSYGIS / VIYSDGRRTFYEDSVK / GQLAGTFDT -> 20 nM (4 of 6 replicates)
- GFTLNDYGIS / VIYSDGRRTQYIDSVK / GREAGTFDS -> 4.4 nM (5 of 6 replicates)
- GFYLNDYGIS / VIYSDGRRTFYGDSVK / GRTAGTFDS -> 4.4 nM (6 of 6 replicates)
- GFTLDSYGIS / VIYSDGRRTFYGDSVK / GRAAGTFDA -> 21 nM (10 of 12 replicates)
- GFILNDYGIS / VIYSDGRRTQYIDSVK / GRAAGTFDS -> 230 nM (4 of 6 replicates)
- GFTLGEYGIS / VIYSDGRRTFYGDSVK / GRAAVTKDQ -> nd (0 of 6 replicates)
- GFTLNSYGIS / VIYSDGQRTFYDDNVK / GQLAGTFDS -> 13 nM (5 of 6 replicates)
- GFTLNDHGIS / VIFSEGRRTQYIDSVK / GRAAGTFDS -> nd (0 of 6 replicates)
- GFSLNEYGIS / VIYSDGRRTFYDDSVK / GKAAGTFDS -> 630 pM (6 of 6 replicates)
- GFQLNDYGIS / VIYSDGRRTFYIDTVK / GKAAGTFDS -> 73 nM (2 of 6 replicates)
- GFTLNSYGIS / VIYSDGKRTFYIDSVK / GRIAGTFDS -> 100 nM (1 of 6 replicates)
- GFTLNQYGIS / VIYSDGKRTFYSDSVK / GRAAGTFDS -> 10 nM (6 of 6 replicates)
- GFQLNSYGIS / VIYSDGRRTFYADSVK / GRQAGTFDS -> 15 nM (6 of 6 replicates)
- GFDLNSYGIS / VIYSDGRRTFYSDSVK / GWTAGTFDS -> 280 pM (6 of 6 replicates)
- GFDLNSYGIS / VIYSDGRRTFYVDQVK / GRTAGTFDS -> 33 nM (5 of 6 replicates)
- GFTLNSYGIS / VIYSDGRRTFYGDSVK / GRTAGTFIS -> nd (0 of 6 replicates)
- GFDLNSYGIS / VIYSDGKRTFYADSVK / GRMAGTFDS -> 1.2 nM (6 of 6 replicates)
- GFELNSYGIS / VIYSDGRRTFYADSVK / GQTAGTFDS -> 1.6 nM (6 of 6 replicates)
- GFKLNSYGIS / VIYSDGRRTFYTDSVK / GKAAGTFDS -> 83 nM (2 of 6 replicates)
- GDTLNSYGIS / VIYSDGYRTFYGDSVK / GRAAGRFDS -> nd (0 of 6 replicates)
- GFELNEYGIS / VIYSDGRRTFYGDSVK / GRAAGTFDV -> 1.2 nM (6 of 6 replicates)
- GFHLNDYGIS / VIYSDGRRTFYIDSVK / GRTAGTFDS -> 4.3 nM (6 of 6 replicates)
- GFSLNAYGIS / VIYSDGRRTFYGDSVK / GQAAGTFDS -> 12 nM (6 of 6 replicates)
- GFTLNQVGIS / VIYSDGRRTFYSDSVK / GRAAGFFDS -> 140 nM (1 of 6 replicates)
- GFTLNSYGIS / VIYSDGRRTFYIFSVR / GRKAGTFPS -> nd (0 of 6 replicates)
- GFDLNSYGIS / VIYSDGKRTFYIDSVK / GQAAGTFDV -> 1.7 nM (6 of 6 replicates)
- GFTLESYGIS / VIYSDGRRTFYGDDVK / GKAAGTFDS -> 110 nM (6 of 6 replicates)
- GFTLNDYGIS / VIYSDGRRTMYIDSVK / GRTAGTFDS -> 2.6 nM (6 of 6 replicates)
- GFDLNSYGIS / VIYSDGRRTFYRDSVK / GKAAGTFDS -> nd (0 of 6 replicates)
- GFSLNSYGIS / VIYADGRRTFYGDSVK / GKAAGTFDR -> 4.3 nM (6 of 6 replicates)
- GFDLNSYGIS / VIYSDGRRTFYHDEVK / GRTAGTFDS -> 760 pM (6 of 6 replicates)
- GFDLNSYGIS / VIYSDGRRTFYIDSVK / GRAAGTFDF -> 7.0 nM (6 of 6 replicates)
- GFHLNSYGIS / VIYSDGRRTFYKDSVK / GQTAGTFDS -> 2.5 nM (1 of 6 replicates)
- GFVLNSYGIS / VIYSDGRRTFYGDSVV / GRAAGTFDS -> nd (0 of 6 replicates)
- GFTLNDYGIS / VIYSDGRRTFYGDSVK / GRAAGTFVI -> nd (0 of 6 replicates)
- GFNLNSYGIS / VIYSDGRRTFYADEVK / GQAAGTFDS -> 5.0 nM (6 of 6 replicates)

4 of these entries, quoted again:

CDR-H1,CDR-H2,CDR-H3,apparent Kd,replicates with signal
GFSLNEYGIS,VIYSDGRRTFYDDSVK,GKAAGTFDS,630 pM,6/6
GFTLNSYGIS,VIYSDGQRTFYDDNVK,GQLAGTFDS,13 nM,5/6
GFELNSYGIS,VIYSDGRRTFYADSVK,GQTAGTFDS,1.6 nM,6/6
GFTLGEYGIS,VIYSDGRRTFYGDSVK,GRAAVTKDQ,nd,0/6

Values of this round are not directly comparable with the first-round values of the same sequences. Some sequences occur more than once in the pool; their replicates are pooled. The authors' rule: three or more of the six replicates give a measured affinity, fewer mean a poor binder.